ChEMBL document CHEMBL5038571, “Design and Synthesis of EZH2-Based PROTACs to Degrade the PRC2 Complex for Targeting the Noncatalytic Activity of EZH2” (J Med Chem, 2021)

Sequences of proteins named here, by UniProt entry; tags and fusion partners are left off.
UniProt Q15910, whole entry, looked up: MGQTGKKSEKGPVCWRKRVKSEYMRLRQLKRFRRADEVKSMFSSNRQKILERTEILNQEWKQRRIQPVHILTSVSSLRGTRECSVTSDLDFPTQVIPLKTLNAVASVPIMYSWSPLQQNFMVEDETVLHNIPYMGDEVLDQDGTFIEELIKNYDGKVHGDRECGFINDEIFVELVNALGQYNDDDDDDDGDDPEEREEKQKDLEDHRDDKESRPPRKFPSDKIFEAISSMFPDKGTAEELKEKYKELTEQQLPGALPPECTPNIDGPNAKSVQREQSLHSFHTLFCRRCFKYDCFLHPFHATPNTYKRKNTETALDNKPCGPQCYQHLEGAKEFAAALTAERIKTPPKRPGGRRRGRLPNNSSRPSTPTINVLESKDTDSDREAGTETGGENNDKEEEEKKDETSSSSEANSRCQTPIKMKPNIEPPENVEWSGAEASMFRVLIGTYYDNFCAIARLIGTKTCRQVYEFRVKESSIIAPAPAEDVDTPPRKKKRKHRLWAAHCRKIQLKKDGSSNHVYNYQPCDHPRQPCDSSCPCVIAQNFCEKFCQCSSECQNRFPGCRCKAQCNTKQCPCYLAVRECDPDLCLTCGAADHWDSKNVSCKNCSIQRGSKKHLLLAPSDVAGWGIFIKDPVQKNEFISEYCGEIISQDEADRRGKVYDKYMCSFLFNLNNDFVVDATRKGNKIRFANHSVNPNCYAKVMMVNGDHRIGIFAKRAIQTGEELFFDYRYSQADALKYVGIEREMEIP

Target: Histone-lysine N-methyltransferase EZH2 (Homo sapiens, UniProt Q15910)
Conditions: WSUDLCL2, dose 60.0 µM, time 2.0 hrs

CCN(c1cc(-c2ccc(CN3CCN(CCCCCCCOc4cccc5c4C(=O)N(C4CCC(=O)NC4=O)C5=O)CC3)cc2)cc(C(=O)NCc2c(C)cc(C)[nH]c2=O)c1C)C1CCOCC1 (stereo unspecified)
deltaT: 5 °C
